The target of the assay is ΔF508-CFTR (Homo sapiens, UniProt P13569, DEL508-508). The assay can be described thus: Membrane potential optical assay (fluorescent voltage sensing dyes, FLIPR III), identification of potentiator compounds (Protocol 1). The conditions noted are these: compounds of Formula II; 100% efficacy is the maximum response obtained with 4-methyl-2-(5-phenyl-1H-pyrazol-3-yl)phenol.

Amino acid sequences for entries named in this document (tags omitted). Chains listed by the source or under a name are the forms on record and can include a tag or linker.
UniProt P13569, with tags, fused parts or gaps DEL508-508: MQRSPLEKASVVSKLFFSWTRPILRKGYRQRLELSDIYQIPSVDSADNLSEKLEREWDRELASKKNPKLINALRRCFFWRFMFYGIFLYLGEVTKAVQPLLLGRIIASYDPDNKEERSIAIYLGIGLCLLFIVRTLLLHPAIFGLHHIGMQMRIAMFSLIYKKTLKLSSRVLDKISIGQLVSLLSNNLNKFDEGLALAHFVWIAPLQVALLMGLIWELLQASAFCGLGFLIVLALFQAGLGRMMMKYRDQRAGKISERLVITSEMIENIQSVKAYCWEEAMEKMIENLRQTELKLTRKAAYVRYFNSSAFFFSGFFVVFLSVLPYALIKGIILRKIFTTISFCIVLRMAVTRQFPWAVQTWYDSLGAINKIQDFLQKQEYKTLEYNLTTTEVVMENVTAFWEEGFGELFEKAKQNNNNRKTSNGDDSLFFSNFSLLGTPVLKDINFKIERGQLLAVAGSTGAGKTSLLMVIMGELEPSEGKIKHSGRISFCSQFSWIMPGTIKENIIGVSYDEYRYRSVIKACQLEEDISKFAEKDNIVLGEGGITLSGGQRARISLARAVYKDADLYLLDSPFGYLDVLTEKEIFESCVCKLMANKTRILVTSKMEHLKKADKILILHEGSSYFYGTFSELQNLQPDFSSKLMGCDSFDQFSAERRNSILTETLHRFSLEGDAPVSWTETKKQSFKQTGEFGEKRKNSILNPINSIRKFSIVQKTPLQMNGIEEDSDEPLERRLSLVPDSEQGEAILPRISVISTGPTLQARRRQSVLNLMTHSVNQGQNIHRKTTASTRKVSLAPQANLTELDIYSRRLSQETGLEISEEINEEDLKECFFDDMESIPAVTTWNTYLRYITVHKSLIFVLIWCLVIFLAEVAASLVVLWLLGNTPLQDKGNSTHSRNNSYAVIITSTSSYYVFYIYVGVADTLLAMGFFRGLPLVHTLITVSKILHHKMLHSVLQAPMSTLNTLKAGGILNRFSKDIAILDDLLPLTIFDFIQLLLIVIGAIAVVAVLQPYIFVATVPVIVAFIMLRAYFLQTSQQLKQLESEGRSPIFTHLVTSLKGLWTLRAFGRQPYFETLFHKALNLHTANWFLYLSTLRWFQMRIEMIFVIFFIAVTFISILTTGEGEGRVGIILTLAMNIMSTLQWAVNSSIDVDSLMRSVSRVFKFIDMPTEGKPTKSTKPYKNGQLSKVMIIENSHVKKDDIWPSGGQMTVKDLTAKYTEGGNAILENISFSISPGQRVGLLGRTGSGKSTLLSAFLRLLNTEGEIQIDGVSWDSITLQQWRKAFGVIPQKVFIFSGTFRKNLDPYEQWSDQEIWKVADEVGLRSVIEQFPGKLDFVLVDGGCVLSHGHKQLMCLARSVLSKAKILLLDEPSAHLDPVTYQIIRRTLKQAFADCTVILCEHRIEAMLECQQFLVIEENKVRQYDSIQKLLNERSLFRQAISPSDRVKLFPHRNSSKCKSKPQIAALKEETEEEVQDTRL

As for `O=C(Nc1ccc(N2C3CCC2CC3)cc1C(F)(F)F)c1c[nH]c2cccc(C(F)(F)F)c2c1=O`, the “% Efficacy” value is listed as “++ (“++” if efficacy was calculated to be from 100% to 25%)”.

On to `CN(C)CC#Cc1cc(N2C3CCC2CC3)ccc1NC(=O)c1c[nH]c2cccc(C(F)(F)F)c2c1=O`, for which the “% Efficacy” value is recorded as “++ (“++” if efficacy was calculated to be from 100% to 25%)”.

Source of the values: patent publication US20160022665A2, “Pharmaceutical Compositions and Administrations Thereof” (Vertex Pharmaceuticals Incorporated, priority 2012, published 2016).
